Here are results for one substance from PMC3157590 (Bioconjugate chemistry, 2011).

The conditions of data set [1]: partition in equal volume mixture of 1-octanol and 25 mM phosphate buffer (pH = 7.4); radioactivity; mean ± SD.
The conditions of data set [2]: canine model, 2 h p.i.; cited from earlier work.

In general, log P refers to the decadic logarithm of the partition coefficient of the neutral form, usually between octanol and water. With “[^99mTc(HYNIC-CA-DMP757)(tricine)(TPPTS)] [DMP444]”, the “log P” value in data set [1] is given as −4.02 ± 0.16. Moreover, in data set [2], the “injected dose remaining in blood (slow blood clearance)” value is 45 % of the injected dose.
